# Source: ChEMBL document CHEMBL2010643 (Bioorg Med Chem Lett, 2012)
# Amino acid sequences for entries named in this document (tags omitted). A change or cut given only in a name is not applied to a line headed by its entry.
# UniProt P06213, whole entry: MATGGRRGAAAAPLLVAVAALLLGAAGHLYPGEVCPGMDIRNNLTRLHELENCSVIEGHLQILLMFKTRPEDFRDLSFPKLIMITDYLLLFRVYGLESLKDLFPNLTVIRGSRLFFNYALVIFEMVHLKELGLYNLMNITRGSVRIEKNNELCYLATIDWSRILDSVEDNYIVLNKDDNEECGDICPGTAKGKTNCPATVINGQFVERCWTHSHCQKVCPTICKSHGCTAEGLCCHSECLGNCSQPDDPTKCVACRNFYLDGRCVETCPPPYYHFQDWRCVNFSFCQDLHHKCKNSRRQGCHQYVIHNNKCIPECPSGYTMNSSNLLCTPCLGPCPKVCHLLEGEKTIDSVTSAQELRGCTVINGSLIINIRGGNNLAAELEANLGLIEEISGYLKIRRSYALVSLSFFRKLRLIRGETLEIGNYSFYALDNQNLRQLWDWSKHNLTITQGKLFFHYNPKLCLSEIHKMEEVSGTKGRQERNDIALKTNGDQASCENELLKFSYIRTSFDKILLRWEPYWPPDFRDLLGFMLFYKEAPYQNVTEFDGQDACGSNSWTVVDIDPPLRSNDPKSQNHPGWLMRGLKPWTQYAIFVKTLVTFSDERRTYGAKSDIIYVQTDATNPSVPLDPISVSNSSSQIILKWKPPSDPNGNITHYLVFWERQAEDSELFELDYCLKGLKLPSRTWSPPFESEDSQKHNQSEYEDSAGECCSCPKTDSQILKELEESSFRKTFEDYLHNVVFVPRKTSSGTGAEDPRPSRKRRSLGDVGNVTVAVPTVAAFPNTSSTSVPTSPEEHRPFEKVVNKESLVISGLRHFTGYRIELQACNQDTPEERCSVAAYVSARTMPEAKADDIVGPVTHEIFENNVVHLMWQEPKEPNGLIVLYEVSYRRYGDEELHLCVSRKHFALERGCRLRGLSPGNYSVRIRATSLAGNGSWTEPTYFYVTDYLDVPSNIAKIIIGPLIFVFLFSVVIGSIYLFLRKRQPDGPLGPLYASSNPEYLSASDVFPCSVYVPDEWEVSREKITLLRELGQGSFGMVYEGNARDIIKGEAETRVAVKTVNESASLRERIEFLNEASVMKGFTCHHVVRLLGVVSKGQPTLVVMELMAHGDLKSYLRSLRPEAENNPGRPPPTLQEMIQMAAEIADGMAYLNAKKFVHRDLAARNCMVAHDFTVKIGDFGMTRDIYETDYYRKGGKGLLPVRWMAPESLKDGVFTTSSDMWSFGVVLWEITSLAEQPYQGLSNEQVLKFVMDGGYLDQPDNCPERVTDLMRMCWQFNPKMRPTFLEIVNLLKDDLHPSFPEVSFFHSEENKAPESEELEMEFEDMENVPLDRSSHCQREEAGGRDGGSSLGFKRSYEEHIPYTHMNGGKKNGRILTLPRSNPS
# UniProt Q9H422: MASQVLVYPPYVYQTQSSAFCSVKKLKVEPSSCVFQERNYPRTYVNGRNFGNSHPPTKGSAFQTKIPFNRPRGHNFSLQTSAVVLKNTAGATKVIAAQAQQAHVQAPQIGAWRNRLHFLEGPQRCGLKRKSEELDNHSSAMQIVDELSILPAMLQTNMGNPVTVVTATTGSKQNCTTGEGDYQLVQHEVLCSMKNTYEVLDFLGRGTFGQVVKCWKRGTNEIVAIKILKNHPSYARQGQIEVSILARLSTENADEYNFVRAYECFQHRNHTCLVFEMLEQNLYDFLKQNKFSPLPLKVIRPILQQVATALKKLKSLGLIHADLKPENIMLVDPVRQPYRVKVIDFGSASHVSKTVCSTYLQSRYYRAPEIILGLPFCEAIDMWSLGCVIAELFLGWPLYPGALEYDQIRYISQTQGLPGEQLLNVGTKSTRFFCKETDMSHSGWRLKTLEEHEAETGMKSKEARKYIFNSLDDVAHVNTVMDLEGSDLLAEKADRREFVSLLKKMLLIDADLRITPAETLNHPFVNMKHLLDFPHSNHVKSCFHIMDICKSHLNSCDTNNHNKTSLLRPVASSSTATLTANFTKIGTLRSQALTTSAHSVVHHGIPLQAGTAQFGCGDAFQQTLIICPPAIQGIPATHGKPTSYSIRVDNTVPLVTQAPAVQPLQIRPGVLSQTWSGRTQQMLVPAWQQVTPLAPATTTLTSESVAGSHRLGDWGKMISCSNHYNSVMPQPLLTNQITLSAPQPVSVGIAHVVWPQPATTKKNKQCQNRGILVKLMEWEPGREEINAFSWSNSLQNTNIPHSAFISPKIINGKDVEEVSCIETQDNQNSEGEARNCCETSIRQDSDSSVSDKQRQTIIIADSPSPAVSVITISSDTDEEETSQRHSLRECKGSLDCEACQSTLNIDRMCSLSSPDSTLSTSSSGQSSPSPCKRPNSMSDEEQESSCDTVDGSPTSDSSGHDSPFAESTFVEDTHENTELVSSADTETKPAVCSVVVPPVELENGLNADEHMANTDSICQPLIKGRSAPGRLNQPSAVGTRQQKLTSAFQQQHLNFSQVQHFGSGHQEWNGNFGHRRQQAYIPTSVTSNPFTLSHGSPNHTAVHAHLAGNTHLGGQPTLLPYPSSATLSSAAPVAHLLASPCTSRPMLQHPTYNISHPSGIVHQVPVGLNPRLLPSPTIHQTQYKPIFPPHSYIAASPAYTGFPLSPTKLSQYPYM
# Tests used:
# [1] = target: Insulin receptor (Homo sapiens) (UniProt P06213); assay: Inhibition of IR assessed as residual activity at 1 uM relative to control
# [2] = target: Homeodomain-interacting protein kinase 3 (Homo sapiens) (UniProt Q9H422); assay: Inhibition of HIPK3 assessed as residual activity at 10 uM relative to control
smiles,measurement,setting,value
COc1cc(N2CCC(N3CCN(C)CC3)CC2)ccc1Nc1ncc(Cl)c(Nc2ccccc2S(=O)(=O)C(C)C)n1 [TAE-684],Activity,[1],17%
same,Activity,[2],83%
